# Values quoted from earlier work as cited in patent US8673265B2, “Carbonylporphyrins and uses thereof” (Brookhaven Science Associates, LLC, priority 2006, dated 2014).
# Test system: EMT-6 mammary carcinomas
# Details: comparison value, same tumor model; cited from earlier work
substance,measurement,value
copper tetra-phenyl-carboranyl porphyrin [CuTCPH],percentage of injected dose in tumor per gram of wet tissue,6.1 %/g
